Measured values as given in US20040235712A1, “Coordination complexes having tethered therapeutic agents and/or targeting moieties, and methods of making and using the same” (priority 2003, published 2004).

Legend:
MCF-7 cells = details: read-out: Cytotoxicity data (IC50) MCF-7, 5-7 days incubation, SRB
HCC-1937 cells = details: read-out: Cytotoxicity data (IC50) HCC-1937, 5-7 days incubation, SRB

Substance	IC50 (MCF-7 cells) [µM]	IC50 (HCC-1937 cells) [µM]
cis, cis, trans-diamminedichloro-bis-(17-(N-(3-carboxy-propyl)-succinato)-estradiol-3-benzoate)platinum(IV) [BEP3]	2.1	4
cis, cis, trans-diamminedichloro-bis-(17-(N-(4-carboxy-butyl)-succinato)-estradiol-3-benzoate)platinum(IV) [BEP4]	4.1	4.3
cis, cis, trans-diamminedichloro-bis-(17-(N-(5-carboxy-pentyl)-succinato)-estradiol-3-benzoate)platinum(IV) [BEP5]	5	3.9
cis, cis, trans-diamminedichloro-bis-(17-(N-carbonylmethylsuccinato)-estradiol-3-benzoate)platinum(IV) [BEP1]	3.7	3.8
cis, cis, trans-diamminedichloro-bis-(17-(N-(2-carboxy-ethyl)-succinato)-estradiol-3-benzoate)platinum(IV) [BEP2]	2.9	3.9
